In patent US9556159B2, “Renin inhibitor” (MITSUBISHI TANABE PHARMA CORPORATION, priority 2012, dated 2017) one finds IC50 data, which are given here for 1 compound.

By UniProt entry, the sequences of proteins in these tests, tags left out. Residues count along the entry.
UniProt P00797, 67-406 limits assumed: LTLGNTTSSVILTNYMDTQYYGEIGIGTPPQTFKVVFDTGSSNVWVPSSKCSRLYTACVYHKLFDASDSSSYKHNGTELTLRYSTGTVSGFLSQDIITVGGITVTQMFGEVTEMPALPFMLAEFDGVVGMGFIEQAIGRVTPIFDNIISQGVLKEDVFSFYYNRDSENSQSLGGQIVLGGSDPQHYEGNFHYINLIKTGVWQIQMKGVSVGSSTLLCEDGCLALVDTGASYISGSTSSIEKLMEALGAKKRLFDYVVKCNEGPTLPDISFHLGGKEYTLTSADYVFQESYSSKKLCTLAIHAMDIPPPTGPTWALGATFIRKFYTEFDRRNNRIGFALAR

The target in this assay is Recombinant human renin (Homo sapiens, UniProt P00797). In words: Inhibitory activity against human renin (fluorogenic peptide substrate). In kind it is biochemical. Particulars: read-out: 50% inhibitory concentration (IC50) against human renin, 37° C. for 1 hour.

For `COC(=O)NCCCc1cc([C@@H](C)N(C(=O)[C@H]2CNCCO2)C2CC2)sc1-c1ccc(-c2nn[nH]n2)cc1`, the IC50 turned out to be 0.4 nM.
